ChEMBL document CHEMBL5108055, “Dual A1/A3 Adenosine Receptor Antagonists: Binding Kinetics and Structure-Activity Relationship Studies Using Mutagenesis and Alchemical Binding Free Energy Calculations” (J Med Chem, 2022)

Sequences of proteins named here, by UniProt entry; tags and fusion partners are left off.
UniProt P30542, whole entry: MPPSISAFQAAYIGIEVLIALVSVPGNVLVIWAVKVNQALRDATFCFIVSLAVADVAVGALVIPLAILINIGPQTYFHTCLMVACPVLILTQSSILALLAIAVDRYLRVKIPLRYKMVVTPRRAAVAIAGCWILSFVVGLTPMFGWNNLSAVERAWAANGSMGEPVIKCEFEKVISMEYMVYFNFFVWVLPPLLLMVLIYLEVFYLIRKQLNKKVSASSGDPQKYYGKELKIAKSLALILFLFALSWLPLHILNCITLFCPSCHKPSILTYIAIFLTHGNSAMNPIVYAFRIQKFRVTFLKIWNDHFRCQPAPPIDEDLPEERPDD

What was measured:
Adenosine receptor A1 [1] = target: T1, Adenosine receptor A1 (Homo sapiens, UniProt P30542); test: Binding affinity to Nluc-A1R (unknown origin) expressed in HEK293 cells by nanoBRET assay; type: cell-based
Adenosine receptor A1 [2] = target: T1, Adenosine receptor A1; test: Antagonist activity at wild type A1R (unknown origin) expressed in CHO-K1 cells assessed as inhibition of NECA reduced forskolin stimulated cAMP accumulation incubated for 30 mins; type: functional, cell-based

SMILES: O=C(Cc1ccccc1)Nc1nc2ccc(Cl)cc2c2nc(-c3ccco3)nn12
- Kd (Adenosine receptor A1 [1]): 15.8 nM
- IC50 (Adenosine receptor A1 [2]): 47.9 nM
